Measurements published in patent publication US20210252032A1, “DRUGS FOR GRP78 CELL SURFACE TRANSLOCATION AND PAR-4 SECRETION” (University of Kentucky Research Foundation, priority 2020, published 2021).

System: tyrosine-protein kinase SRC
Assay: SRC activation (FIG. 3)
Type: cell-based
Conditions: lung cancer cells
Source text: Dephosphorylation of Y530 by phosphatases results in autophosphorylation of SRC at Y419, leading to activation. SRC activation triggers a signaling cascade that prevents retrograde trafficking of proteins from the Golgi to the ER and promotes GRP78 translocation from the Golgi to the cell surface.

C[C@@H](Oc1cc(-c2cnn(C3CCNCC3)c2)cnc1N)c1c(Cl)ccc(F)c1Cl [CZT, Crizotinib]
activation of SRC: cause the activation of SRC
